Experimental data from US20230285399A1, “Compound for the treatment and prophylaxis of a lipofuscin-associated disease and/or a disease associated with aged oxidized melanin” (EBERHARD KARLS UNIVERSITAET TUEBINGEN MEDIZINISCHE FAKULTAET, priority 2020, published 2023).
Some compounds may have been tested in ways that are not shown here.

Columns and labels:
function of the retina = experiment: Electroretinography (ERG) of eyes treated with Isoket, […] or IS 5; conditions: after 48 hours, different light intensities (0.1, 1, 3, 10 cd.s/m2), dark adapted

SMILES: O=[N+]([O-])OCC(CO[N+](=O)[O-])(CO[N+](=O)[O-])CO[N+](=O)[O-]
- reduction of the amount of fluorescent lipofuscin granules (pigmented Abca^4−/− mice; intravitreal, right eye, after 48 hours, Isoket 80 μg, Pentalong 100 μg, IS 5 80 μg, vs untreated left eye): 20%
- fluorescence of lipofuscin (fluorescence intensity, arbitrary units, FIG. 3) (pigmented Abca^4−/− mice; treated vs untreated eye from the same mouse): removed the fluorescence of lipofuscin
- ERG responses, treated vs untreated eye (function of the retina): no difference between the treated and the untreated eyes
